# Assay results as given in paper PMC9546861 (2022).
# B1: gephE-DNA conjugate (gephE coupled to the ligand strand) (domain or fragment)
# chain: MSPFPLTSMDKAFITVLEMTPVLGTEIINYRDGMGRVLAQDVYAKDNLPPFPASVKDGYAVRAADGPGDRFIIGESQAGEQPTQTVMPGQVMRVTTGAPIPCGADAVVQVEDTELIRESDDGTEELEVRILVQARPGQDIRPIGHDIKRGECVLAKGTHMGPSEIGLLATVGVTEVEVNKFPVVAVMSTGNELLNPEDDLLPGKIRDSNRSTLLATIQEHGYPTINLGIVGDNPDDLLNALNEGISRADVIITSGGVSMGEKDYLKQVLDIDLHAQIHFGRVFMKPGLPTTFATLDIDGVRKIIFALPGNPVSAVVTCNLFVVPALRKMQGILDPRPTIIKARLSCDVKLDPRPEYHRCILTWHHQEPLPWAQSTGNQMSSRLMSMRSANGLLMLPPKTEQYVELHKGEVVDVMVIGRL
# modifications: ssDNA (cNL-A48, ligand strand) covalently coupled by its 5' end to a primary amine of the protein (NHS coupling)
# How the values were obtained:
# [1] = target: octamer e=8, o1=0, o2=3, o3=1
# [2] = target: octamer e=8, o1=0, o2=4, o3=0
# [3] = target: octamer e=8, o1=1, o2=2, o3=1
# [4] = target: octamer e=8, o1=1, o2=1, o3=2
# [5] = target: octamer e=8, o1=0, o2=2, o3=2
# [6] = target: octamer with the lowest affinity (flexible movement of the two sides, sterically restricted epitopes within … (epitopes linked by PEG moieties to L-lysine cores; free N-terminal amino end and C-terminal amide group)
# [7] = target: octamer e=8, o1=2, o2=2, o3=0
# [8] = target: octamer e=8, o1=1, o2=3, o3=0
# [9] = target: octamer e=8, o1=2, o2=1, o3=1
# [10] = target: octamer e=8, o1=0, o2=1, o3=3
# [11] = target: octamer e=8, o1=3, o2=1, o3=0
# [12] = target: octamer e=8, o1=2, o2=0, o3=2
# [13] = target: octamer e=8, o1=3, o2=0, o3=1
# [14] = target: octamer e=8, o1=1, o2=0, o3=3
# [15] = target: compound e = 8, o1 = 0, o2 = 4 (epitopes linked by PEG moieties (o1 = 0, o2 = 4) to L-lysine cores)
binder,measurement,setting,value
B1,Kd,[1],193 nM
same,Kd,[2],214 nM
same,Kd,[3],201 nM
same,Kd,[4],208 nM
same,Kd,[5],201 nM
same,Kd,[6],245 nM
same,Kd,[7],184 nM
same,Kd,[8],241 nM
same,Kd,[9],214 nM
same,Kd,[10],199 nM
same,Kd,[11],159 nM
same,Kd,[12],179 nM
same,Kd,[13],105 nM
same,Kd,[14],218 nM
same,Kd,"tetramer e=8, o1=4, o2=0",442 nM
same,Kd,"tetramer e=6, o1=3, o2=1",1020 nM
same,Kd,"tetramer e=7, o1=1, o2=3",1100 nM
same,Kd,"tetramer e=6, o1=0, o2=4",357 nM
same,Kd,"tetramer e=7, o1=3, o2=1",1370 nM
same,Kd,"tetramer e=8, o1=3, o2=1",484 nM
same,Kd,"tetramer e=7, o1=4, o2=0",1140 nM
same,Kd,"tetramer e=8, o1=2, o2=2",521 nM
same,Kd,"tetramer e=7, o1=2, o2=2",1680 nM
same,Kd,"tetramer e=6, o1=4, o2=0",734 nM
same,Kd,[15],743 nM
same,Kd,"tetramer e=6, o1=2, o2=2",523 nM
same,Kd,"tetramer e=6, o1=1, o2=3",1350 nM
same,Kd,"tetramer e=8, o1=1, o2=3",632 nM
same,Kd,"tetramer e=7, o1=0, o2=4",721 nM
